Paper PMC7743948, “D-LL-31 enhances biofilm-eradicating effect of currently used antibiotics for chronic rhinosinusitis and its immunomodulatory activity on human lung epithelial cells” (PLoS ONE, 2020)

Experiments:
[1] = system: S. epidermidis; test: Broth microdilution MIC/MBC of conventional antibiotics, planktonic form; assay type: cell-based; conditions: Staphylococcus epidermidis, broth microdilution then plate count on MHA
Protocol: (§1) MICs and MBCs of conventional antibiotics were determined using a broth microdilution technique. […] Only P. aeruginosa was additionally tested for susceptibility to TOB (Sigma-Aldrich) (0.03–52 μM or 0.01–25 μg/ml). Bacterial suspensions (5 x 10^5 CFU/ml) were added to the microtiter plates, which were then incubated at 37 °C for 24 h. Antibiotic-free culture was used as a control. […] The results were confirmed using a microplate reader at OD620 (Sunrise™, TECAN, Australia). The plate count technique was further used to determine the MBC values on Mueller Hinton agar (MHA) (Himedia®). Each experiment was performed independently three times in triplicate.

[2] = system: P. aeruginosa; test: as above; assay type: cell-based; conditions: Pseudomonas aeruginosa, MHB, 5 x 10^5 CFU/ml, 37 °C, 24 h, CLSI
Protocol: as §1

SMILES: CC1(C)S[C@@H]2[C@H](NC(=O)[C@H](N)c3ccc(O)cc3)C(=O)N2[C@H]1C(=O)O [AMX, amoxicillin]
- MBC [1]: 17100 µM and 6250 µg/mL
- MIC [2]: 17.1 mM

Several values for one entry are separate records, joined by “and”; a condition that tells them apart may be missing. Equal values may be shown once.
